Target: T1, ALKBH5 (Homo sapiens, UniProt Q6P6C2)
T1 construct: pNIC28-Bsa4 ALKBH5 (encompassing residues 66-292); made in house; host or cells: E. coli BL21 (DE3) Rosetta T1R
Assay: Differential scanning fluorimetry (DSF)-based binding assay, ALKBH5
Settings: read-out: Tm shift (ALKBH5)
Method: Superdex-200 column (GE Healthcare) pre-equilibrated with 20 mM HEPES, pH 7.5, 300 mM NaCl, 10% (v/v) glycerol, 0.5 mM TCEP. […]
∆N31-FTO in complex with 12, 16, and 21 contained 100 mM Sodium Citrate, pH 5.6, 10% w/v polyethylene glycol (PEG) 3350, 10% t-butanol. […]
solution diluted to 22% glycerol and flash frozen in liquid nitrogen. Crystals of ∆N31-FTO in complex with 21 were screened on PXIII beamline at the Swiss Light Source. ∆N31-FTO in complex with 12 and 16 were screened on PXI beamline at the Swiss Light Source. […]
Differential scanning fluorimetry (DSF)-based binding assay
DSF-based binding assay was performed using a MiniOpticon™ Real-Time PCR Detection System (Bio-Rad), monitoring protein unfolding using SYPRO orange (Invitrogen) according to the reported method.[16] FAM (492 nm) and ROX (610 nm) filters were used for excitation and emission respectively. […]
mix. Fluorescence readings were taken every 1°C in the range 25-95°C, with the temperature increased linearly by 1°C min -1. […] The inflection point, representing Tm, was calculated by fitting the Boltzmann equation to the sigmoidal curves obtained; data were processed using GraphPad Prism 6.0™.
The Tm shift caused by the addition of small molecules/ fragments was determined by subtraction of the “reference” Tm (protein incubated with metal and 1% v/v DMSO) from the Tm obtained in the presence of the compound. […]

Sequences of proteins named here, by UniProt entry; tags and fusion partners are left off. Residues count along the entry.
UniProt Q6P6C2, 66-292: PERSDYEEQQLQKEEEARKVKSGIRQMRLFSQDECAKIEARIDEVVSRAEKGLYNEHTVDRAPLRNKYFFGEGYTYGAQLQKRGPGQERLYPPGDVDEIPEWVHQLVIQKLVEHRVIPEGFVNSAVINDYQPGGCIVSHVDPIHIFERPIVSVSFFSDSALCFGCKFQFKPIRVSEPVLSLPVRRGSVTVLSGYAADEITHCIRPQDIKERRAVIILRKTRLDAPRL

O=C(O)CNC(=O)C(=O)O [NOG, N-oxalylglycine, reference compound]
ΔTm at 100 µM: 2.1 °C

Reference: PMC5424463, “A strategy based on nucleotide specificity leads to a subfamily-selective and cell-active inhibitor of N ^6-methyladenosine demethylase FTO” (Chemical Science, 2014)
